Measurements published in US9095573B2, “Method of biasing implanted human neural stem cells away from differentiation into glial cells by (+)phenserine to modulate the concentration of soluble βAPP in tissue or CSF” (priority 2005, dated 2015).

Tests used:
APP protein (22C11) = assay: Western blot analysis of APP protein expression in brain tissue after (+)-phenserine treatment; assay type: in vivo, APP23 and wild-type mice; settings: 25 mg/kg, i.p./day for 14 days
From the text: (§1) APP23 mice, expressing the 751-amino acid human amyloid-precursor protein (hAPP751) with the Swedish double mutation (K670N, M671L) driven by the neuron-specific murine Thy-1-promoter (Sturchler-Pierrat et al., 1997) were received as a gift from Novartis Pharma Ltd., (Switzerland), and employed to breed a colony of experimental animals by backcrossing to C57/BL6 mice. Mixed genotype groups were housed in standard mouse cages with access to food and water ad libitum, constant room temperature and humidity, during a 12/12 hr light/dark cycle. Genotypes were confirmed by PCR (Calhoun et al., 1999). In all experiments wild-type littermates served as controls. All animal experimental procedures were carried out in compliance with National Institutes Health Guidelines for Care and Use of Laboratory Animals, and approved by the Animal Research Committee (protocol 00-24) at the University of Central Florida.
(§2) A total of 55 age and sex-matched APP23 (n=30) and wild-type (n=25) mice (ages ranged from 4-7 months) were administered with either (+)-phenserine (25 mg/kg/day, i.p.) or 0.9% saline (control) for 14 consecutive days. Animals were subsequently divided into two groups that were either sacrificed following 14 days treatment (n=17 APP23 and n=13 wild-type, respectively) or received transplantation of HSNC into the lateral ventricle (n=13 APP23 mice and n=12 wild-type, respectively). (+)-Phenserine or saline injection was continued once a day for 1 week after a 2-day recovery from transplantation surgery. […]
(§3) Western blot analysis was performed to analyze effect of (+)-phenserine on the relative APP and GFAP protein expression in APP23 and control mice. […] The homogenates were centrifuged and washed twice at 12,000× g for 10 min at 4° C. and the supernatants were used for protein quantification by the Bradford method using Bio-Rad Protein Assay Dye Reagent (Bio-Rad, Hercules, Calif.). […]

GFAP = assay: Western blot analysis of GFAP protein expression in brain tissue after (+)-phenserine treatment; assay type: in vivo, APP23 and wild-type mice; settings: 25 mg/kg, i.p./day for 14 days
From the text: as §1, §2, §3

βAPP = settings: Greig et al.; cited from earlier work
[1] = wild-type mice, hippocampus (FIG. 1)

(+)-phenserine
reduction in APP protein expression (APP protein (22C11); cerebral cortices of APP23 and wild-type mice, p>0.05): did not reach statistical significance
decrease in APP protein expression vs saline treated (APP protein (22C11); hippocampus of APP23 mice, p<0.01): ~3 fold
change in APP protein expression vs saline treated (APP protein (22C11); [1]): No significant change
change in GFAP protein expression (GFAP; cerebral cortices of APP23 and wild-type mice): no significant change
reduction in GFAP protein expression (GFAP; hippocampus of APP23 mice, p<0.05): ~1.5 fold
change in GFAP protein expression vs saline treated (GFAP; [1]): No significant changes
effect on βAPP levels in the brain (βAPP): dramatically reduces βAPP levels in the brain
